# In patent US20220062278A1, “SMALL MOLECULE INHIBITORS OF THE ANDROGEN RECEPTOR ACTIVITY AND/OR EXPRESSION AND USES THEREOF” (Arizona Board of Regents on Behalf of the Univeristy of …, priority 2018, published 2022):
# By UniProt entry, the sequences of proteins in these tests, tags left out. Residues count along the entry.
# UniProt P10275, 669-920 limits assumed: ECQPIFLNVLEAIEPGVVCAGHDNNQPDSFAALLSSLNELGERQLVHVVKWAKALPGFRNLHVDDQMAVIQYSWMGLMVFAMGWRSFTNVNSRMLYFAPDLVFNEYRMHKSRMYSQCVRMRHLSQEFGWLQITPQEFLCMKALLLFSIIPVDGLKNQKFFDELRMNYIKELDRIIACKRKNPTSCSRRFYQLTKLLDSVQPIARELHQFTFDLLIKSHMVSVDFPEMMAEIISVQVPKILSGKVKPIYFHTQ
# Target: AR (Homo sapiens, UniProt P10275)
# Test: GeneBlazer assay, inhibition against AR activity
# Conditions: Table III
# Source text: Tables II, III and IV show % inhibition against AR activity at 10 μm within a GeneBlazer assay, and IC50 values (nM) in GeneBlazer assay.
smiles,measurement,value
CCCCn1nnnc1C(c1cccc(O)c1)N1CCC(n2c(=O)[nH]c3ccccc32)CC1 (stereo not shown),% Inhibition against AR at 10 uM- GeneBlazer Assay,83.9%

# Some compounds may have been tested in ways that are not shown here.
